# Melting point values, as collected for the OPERA models

Data: OPERA 2.9 data sets, kmansouri/OPERA on GitHub.

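OPERA's authors assembled the values from existing databases and did not measure them anew. A listed value is a point estimate from one report or more. Method and conditions are not stated for these values. The measured form (salt, isomer or mixture) is not always the one drawn. Some entries may be limits or estimates that an upstream database listed as plain numbers.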

Melting points are in °C. "via" names the databases from which the curators took the value.

* O=C(O)CCCNS(=O)(=O)c1ccc2c(c1)OCCO2: MP 121 °C (via OCHEM)
* C=CCCCCCCCCC(=O)N(CCO)CCO [Undecylenamide DEA]: MP -38 °C (via eChemPortal)
* CCN(C(=O)Cl)C1CCCCC1 [Cyclohexyl(ethyl)carbamyl chloride]: MP -22 °C (via eChemPortal)
* COC(=O)C(=O)CC(=O)c1ccc(-c2ccccc2)cc1 [Methyl 4-([1,1'-biphenyl]-4-yl)-2,4-dioxobutanoate]: MP 143 °C (via OCHEM)
* NNC(=O)Cc1ccc(Cl)cc1 [2-(4-Chlorophenyl)acetohydrazide]: MP 166 °C (via OCHEM)
* COc1ccc([N+](=O)[O-])cc1C(=O)O [2-Methoxy-5-nitrobenzoic acid]: MP 156.5 °C (via OCHEM)
* C[n+]1ccn(CCC(F)(F)C(F)(F)C(F)(F)C(F)(F)C(F)(F)C(F)(F)F)c1.F[P-](F)(F)(F)(F)F: MP 79.5 °C (via ChemicalBook)
* CCn1c(NN)nc2ccccc2c1=O [3-ethyl-2-hydrazinoquinazolin-4(3H)-one]: MP 160 °C (via OCHEM)
* CC(C)(C)OC(=O)Nc1cc(N)ccc1F [tert-Butyl (5-amino-2-fluorophenyl)carbamate]: MP 93 °C (via OCHEM)
* COc1ccc(-c2cc(C(=O)O)c3ccccc3n2)cc1OC [2-(3,4-Dimethoxyphenyl)quinoline-4-carboxylic acid]: MP 235 °C (via OCHEM)
* Cc1c(Cl)cccc1N1C(=O)C=CC1=O [1-(3-Chloro-2-methylphenyl)-1H-pyrrole-2,5-dione]: MP 69 °C (via OCHEM)
* O=C1CSc2ccc(C(=O)O)cc2N1 [3-oxo-3,4-dihydro-2H-1,4-benzothiazine-6-carboxylic acid]: MP 252 °C (via OCHEM)
* Cc1ccc2nc(-c3ccc(N=C=S)cc3)sc2c1 [2-(4-Isothiocyanatophenyl)-6-methyl-1,3-benzothiazole]: MP 244 °C (via OCHEM)
* c1ccc2sc(C3CCCCN3)nc2c1 (centres undefined) [2-piperidin-2-yl-1,3-benzothiazole]: MP 201 °C (via OCHEM)
* CC1(C)CC(N(C=O)CCCCCCN(C=O)C2CC(C)(C)NC(C)(C)C2)CC(C)(C)N1: MP 157.3 °C (via eChemPortal)
* FC(F)(F)C(F)(C(F)(F)F)C(F)(F)C(F)(F)C(F)(F)C(F)(F)C(F)(F)C(F)(F)C(F)(F)C(F)(F)CC1CO1 (centres undefined) [((Perfluoro-9-methyldecyl)methyl)oxirane]: MP 44.5 °C (via ChemicalBook)
* Nn1c(S)nnc1-c1ccccc1Cl [4-Amino-5-(2-chlorophenyl)-4H-1,2,4-triazole-3-thiol]: MP 112 °C (via OCHEM)
* N#CCC(=O)Nc1ccc(S(N)(=O)=O)cc1 [2-Cyano-N-(4-sulfamoylphenyl)acetamide]: MP 216 °C (via OCHEM)
* COc1cc(C)ccc1C(=O)CBr [2-bromo-1-(2-methoxy-4-methylphenyl)ethanone]: MP 78 °C (via OCHEM)
* Cc1c(C)n(Cc2ccccc2)c2ncnc(N)c12 [7-benzyl-5,6-dimethyl-7H-pyrrolo[2,3-d]pyrimidin-4-amine]: MP 176 °C (via OCHEM)
* C[C@@H](O)[C@@H](O)[C@@H](O)CC=O [D-Digitoxose]: MP 112 °C (via OCHEM)
* O=C(O)Cn1cc([N+](=O)[O-])cn1 [(4-nitro-1H-pyrazol-1-yl)acetic acid]: MP 154 °C (via OCHEM)
* O=C(O)C1CCCN1C(=O)Nc1ccccc1 (centres undefined) [1-(Phenylcarbamoyl)proline]: MP 162 °C (via OCHEM)
* O=C(O)c1ccc(Cl)c(S(=O)(=O)Cl)c1 [4-Chloro-3-(chlorosulphonyl)benzoic acid]: MP 144 °C (via OCHEM)
* Nc1ccc(S(=O)(=O)Nc2cccc(F)c2)cc1 [4-Amino-N-(3-fluorophenyl)benzene-1-sulfonamide]: MP 169 °C (via OCHEM)
* N#Cc1ccccc1CS(=O)(=O)Cl [(2-Cyanophenyl)methanesulfonyl chloride]: MP 86 °C (via OCHEM)
* N#CCC(=O)Nc1ccccn1 [2-Cyano-N-(pyridin-2-yl)acetamide]: MP 161 °C (via OCHEM)
* O=C(O)c1cc(Cl)ccc1-n1cnnn1 [5-Chloro-2-(1H-tetrazol-1-yl)benzoic acid]: MP 199 °C (via OCHEM)
* Cc1c(Cl)cccc1NC(=O)CCl [2-chloro-N-(3-chloro-2-methylphenyl)acetamide]: MP 72.5 °C (via OCHEM)
* COc1c(C)cc(N)cc1C [4-methoxy-3,5-dimethylaniline]: MP 63.5 °C (via OCHEM)
* Cc1cc(Cl)n2c(nc3ccccc32)c1C#N [1-Chloro-3-methylpyrido[1,2-a]benzimidazole-4-carbonitrile]: MP 211 °C (via OCHEM)
* O=C(CCl)NC(=O)Nc1ccccc1 [N-(anilinocarbonyl)-2-chloroacetamide]: MP 162 °C (via OCHEM)
* Nc1cnc(-c2ccccc2)nc1 [2-phenylpyrimidin-5-amine]: MP 82 °C (via OCHEM)
* Cc1cc(N)n(C2CCS(=O)(=O)C2)n1 (centres undefined): MP 216 °C (via OCHEM)
* CC(Cl)c1nnc(-c2ccccc2)o1 (centres undefined) [2-(1-chloroethyl)-5-phenyl-1,3,4-oxadiazole]: MP 17 °C (via OCHEM)
* NS(=O)(=O)c1ccc(F)c(Cl)c1 [3-chloro-4-fluorobenzenesulfonamide]: MP 108.5 °C (via OCHEM)

The 3 lowest values of MP among the entries above:

{"smiles": "C=CCCCCCCCCC(=O)N(CCO)CCO", "name": "Undecylenamide DEA", "MP (°C)": "-38", "via": "eChemPortal"}
{"smiles": "CCN(C(=O)Cl)C1CCCCC1", "name": "Cyclohexyl(ethyl)carbamyl chloride", "MP (°C)": "-22", "via": "eChemPortal"}
{"smiles": "CC(Cl)c1nnc(-c2ccccc2)o1", "stereo": "centres undefined", "name": "2-(1-chloroethyl)-5-phenyl-1,3,4-oxadiazole", "MP (°C)": "17", "via": "OCHEM"}